From PMC3588017

Key:
[1] = molecular target: I-domain from integrin alpha 2 beta 1, locked open I-domain cleaved of its GST tag (CLOI); assay: single molecule force spectroscopy (AFM); I-domain (CLOI) tethered by a cysteine through a PEG crosslinker to template stripped gold; peptide tethered through PEG to a gold coated cantilever; fluid cell in PBS; amplitude 200 nm, 1 Hz, 1000 approach-retract cycles a tip; uninhibited; single loading rate
[2] = molecular target: I-domain from integrin alpha 2 beta 1, locked open I-domain cleaved of its GST tag (CLOI); assay: single molecule force spectroscopy (AFM); as a1, after free I-domain was flowed into the AFM fluid cell to block the peptide on the tip; means of four cantilevers

peak force (peak 1) [1] [pN]	peak force (peak 2) [1] [pN]	peak force (peak 3) [1] [pN]	peak force (peak 4) [1] [pN]	peak force (peak 5) [1] [pN]	peak force (peak 6) [1] [pN]	peak force (peak 7) [1] [pN]	peak force (peak 8) [1] [pN]	peak force (peak 9) [1] [pN]	unbinding probability [1] [%]	unbinding probability after blocking with free I-domain [2] [%]	Substance
16	27	34	52	65	72	80	90	109	8	–	GPP peptide, synthetic triple helical control peptide GPC[GPP]10GPCG
13	26	37	55	71	89	–	–	–	20	14	GFOGER peptide, synthetic triple helical collagen related peptide GPC[GPP]5GFOGER[GPP]5GPCG
